Values of other authors in patent US12233205B2, “Thermal modulation of an inhalable medicament” (priority 2014, dated 2025).

Details: in vivo, im

Substance: Interferon alfa 2b: listed among biosimilar molecules suitable for delivery with the device
- bioavailability: 80-90%
